Data published in US10052359B2, “Composition for enhancing memory and learning function and/or cognitive function” (KIRIN KABUSHIKI KAISHA, priority 2014, dated 2018).

Tested on: scopolamine model of poor memory
Experiment: Y-maze test (spontaneous alternation behavior) in mice given scopolamine
Type: in vivo
Details: synthetic peptide 0.1-3 μmol/kg orally; scopolamine 0.80 mg/kg i.p.
Description: FIG. 1A illustrates a summary of methods of evaluating the memory and learning function and the cognitive function. To 6-week-old male CD-1 mice, 1 mg/kg of the peptide extract or 0.1-3 μmol/kg of a synthetic peptide is orally administered forcibly into stomach and 40 minutes later 0.80 mg/kg of scopolamine hydrochloride was administered intraperitoneally to cause memory impairment. 20 minutes after the intraperitoneal administration of scopolamine, the Y-maze test was conducted to evaluate the spontaneous alternation behavior.
Mice originally have a habit of selecting a route different from the route selected immediately before. Therefore a mouse placed in a Y-maze having 3 arms equivalent in width, length, and the like normally enters the arm different from the arm that the mouse entered immediately before. The Y-maze test is a test to evaluate the short-term memory using the habit of mice.
In the Y-maze test, a Y-maze was used as an experimental apparatus having 3 arms each connected at an angle of 120 degrees and each having a length of 25 cm, a wall high of 20 cm, and a floor width of 5 cm.
Mice were placed in the tip of one of the aims in the Y-maze and the orders of the arms that the mice entered when the mice were allowed to search freely for 8 minutes were recorded. […] 10 mice per group were used for the experiment and the average and the standard error were determined. […]

| Substance | enhancing effect on the memory and learning function and the cognitive function (spontaneous alternation behavior rate) |
| --- | --- |
| tryptophan-leucine (WL; listed as Bos taurus) | found to have an enhancing effect on the memory and learning function and the cognition function in a concentration-dependent manner |
| tryptophan-valine (WV; listed as Bos taurus) | found to have an enhancing effect on the memory and learning function and the cognition function in a concentration-dependent manner |
